# The list shows a part of the results, in another mix than the full data. Activity calls are given as the source filed them.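 How the source made its calls: active means pattern-corrected inhibition of lipid staining of at least 50% with the nuclear-stain viability signal not falling by more than 50%; inactive means the rest, inconclusive results apart.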
# Assay: inhibitors of triacylglycerol accumulation, primary screen, cell-based, uHTS, fluorescence, H9c2 (AID 651582);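 further: 0% = DMSO wells and 100% = triacsin C control wells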
# Settings: H9c2 cells, Nile Red lipid (TAG) fluorescence; at 12.5 µM; active compounds read high; cells loaded with 200 µM oleic acid
row,SMILES,inhibition
1,CN(C)C(=O)c1cc([N+](=O)[O-])cc2c1-c1c(cc([N+](=O)[O-])cc1[N+](=O)[O-])C2=O,active: 80.5%
2,CCC(C)N(CC(C)C)C(=S)SC(NC(C)=O)C(Cl)(Cl)Cl (stereo not drawn),active: 106%
3,CC(=O)NC(SC(=S)N(CC(C)C)CC(C)C)C(Cl)(Cl)Cl (stereo not drawn),active: 77.7%
